{"source": "patent US4252956A", "about": "“Derivatives of 1,4-dihydropyridine-3-carbothiol acids” (priority 1979, dated 1981)", "test": "in vivo", "details": "mouse, ip, white mice, intraperitoneal, read-out: LD50 for white mice upon intraperitoneal administration"}
{"smiles": "CCOC(=O)COc1ccc2c(C)c(CCN(CC)CC)c(=O)oc2c1", "note": "[Carbocromene, reference compound]", "values": [{"measurement": "LD50", "value": 640, "unit": "mg/kg"}]}
